Apparent affinities of Ab-14 variants for a coronavirus HR2 peptide

From the AlphaSeq antibody data of Engelhart et al. 2022 (doi:10.1038/s41597-022-01779-4), copy in the FLAb collection.

Target peptide (SARS-CoV-2 spike, HR2 region): PDVDLGDISGINAS

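AAYL49 was designed without a model: most single CDR substitutions and a random sample of double and triple ones. AlphaSeq pools MATa yeast showing the antibodies with MATalpha yeast showing the peptide. Binding brings cells together so that they mate, and sequencing counts the barcode pairs among the diploids. The ratio of observed to expected reads was calibrated, replicate by replicate, on BCL2-family standards whose Kd was known from biolayer interferometry. Mating was done three times.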

The variants keep the light chain, the linker and the frameworks of Ab-14 (scFv order VH, a 15-residue (Gly4Ser)3 linker, VL).
VH: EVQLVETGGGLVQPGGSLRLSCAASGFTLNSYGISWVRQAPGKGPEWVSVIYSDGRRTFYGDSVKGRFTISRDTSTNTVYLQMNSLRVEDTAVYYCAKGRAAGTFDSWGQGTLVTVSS
VL: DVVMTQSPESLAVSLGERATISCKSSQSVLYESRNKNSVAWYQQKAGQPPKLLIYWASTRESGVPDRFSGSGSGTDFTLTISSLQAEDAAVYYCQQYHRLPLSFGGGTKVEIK

The whole VH of each variant is written out.
The Kd shown is the geometric mean over detected replicates; a lower Kd is a better binder.
Where no diploid with the target was found in any replicate, the entry reads "no signal": below detection, most likely a poor binder, though not proof of it.
As a blank, each scFv also met three strains without target: over library AAYL49, 15% of these pairings were detected, typically at 11 µM and seldom below 680 nM.

The variant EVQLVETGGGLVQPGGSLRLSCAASGFTLNSFGISWVRQAPGKGPEWVSVIYCDGRRTFYGLSVKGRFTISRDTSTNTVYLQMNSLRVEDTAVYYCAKGRAAGTFDSWGQGTLVTVSS showed no signal (0 of 3 replicates).
The variant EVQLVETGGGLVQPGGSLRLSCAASEFTLNSYHISWVRQAPGKGPEWVSVIYSDGRRTFYGDKVKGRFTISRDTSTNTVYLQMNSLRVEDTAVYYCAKGRAAGTFDSWGQGTLVTVSS showed no signal (0 of 3 replicates).
The variant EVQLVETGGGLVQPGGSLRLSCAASGFTLNSYGISWVRQAPGKGPEWVSVIYSDGRRTFYGDSVKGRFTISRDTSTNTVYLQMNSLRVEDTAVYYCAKGRCAGTFPSWGQGTLVTVSS showed no signal (0 of 3 replicates).
The variant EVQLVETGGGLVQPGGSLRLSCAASGFTLNVYWISWVRQAPGKGPEWVSVIYSDGRRTFYGDSVKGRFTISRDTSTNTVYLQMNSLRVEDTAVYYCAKGRAAGTFRSWGQGTLVTVSS showed 7.0 µM (1 of 3 replicates).
The variant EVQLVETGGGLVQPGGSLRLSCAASGFCLNVYGISWVRQAPGKGPEWVSVIYSDGRRTFYGDSVKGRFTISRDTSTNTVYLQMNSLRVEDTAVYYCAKGCAAGTFDSWGQGTLVTVSS showed 2.6 µM (3 of 3 replicates).
The variant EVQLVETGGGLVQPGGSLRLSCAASGFTLNSYWISWVRQAPGKGPEWVSVIYSDGRRTFYGDSVRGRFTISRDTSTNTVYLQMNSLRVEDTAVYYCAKNRAAGTFDSWGQGTLVTVSS showed no signal (0 of 3 replicates).
The variant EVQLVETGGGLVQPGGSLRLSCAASGFTLNSYGISWVRQAPGKGPEWVSVIYSDGRRFFYGDSVWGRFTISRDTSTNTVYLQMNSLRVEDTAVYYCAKGRAKGTFDSWGQGTLVTVSS showed 8.7 µM (2 of 3 replicates).
The variant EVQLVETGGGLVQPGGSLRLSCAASGFTPNSYGISWVRQAPGKGPEWVSMIYSDGRRTFYGDSCKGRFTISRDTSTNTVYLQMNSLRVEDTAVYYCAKGRAAGTFDSWGQGTLVTVSS showed 81 µM (1 of 3 replicates).
The variant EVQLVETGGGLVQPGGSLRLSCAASSFTLNEYGISWVRQAPGKGPEWVSVIYSDGRRTFYGRSVKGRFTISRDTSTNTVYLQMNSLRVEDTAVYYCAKGRAAGTFDSWGQGTLVTVSS showed 3.9 µM (2 of 3 replicates).
The variant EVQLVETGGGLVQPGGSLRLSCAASGFTLNGYGVSWVRQAPGKGPEWVSVIYSDGRRTFYGDWVKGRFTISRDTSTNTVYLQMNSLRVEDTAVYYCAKGRAAGTFDSWGQGTLVTVSS showed no signal (0 of 3 replicates).
The variant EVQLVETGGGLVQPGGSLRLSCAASGFTLNSYGISWVRQAPGKGPEWVSVRYSDGRRTFYGDSVKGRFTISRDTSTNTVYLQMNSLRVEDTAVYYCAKGRQCGTFDSWGQGTLVTVSS showed 19 µM (2 of 3 replicates).
The variant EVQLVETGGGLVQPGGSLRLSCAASGFTLNSYGISWVRQAPGKGPEWVSVIYSVGRHTFYGDSVKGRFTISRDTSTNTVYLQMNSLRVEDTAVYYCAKGRAAGTFLSWGQGTLVTVSS showed 13 µM (1 of 3 replicates).
The variant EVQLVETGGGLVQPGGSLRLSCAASGFTLNSYEISWVRQAPGKGPEWVSVIYVDGGRTFYGDSVKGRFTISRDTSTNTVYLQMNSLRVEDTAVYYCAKGRAAGTFDSWGQGTLVTVSS showed 1.9 µM (1 of 3 replicates).
The variant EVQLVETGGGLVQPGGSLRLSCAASGFTLNSLGISWVRQAPGKGPEWVSVIYSDGRRTFYNDSVKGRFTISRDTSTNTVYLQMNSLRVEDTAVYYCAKGRAAGVFDSWGQGTLVTVSS showed no signal (0 of 3 replicates).
The variant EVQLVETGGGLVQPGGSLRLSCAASGFTLNSYGISWVRQAPGKGPEWVSVIYPDGRRTFYGDNVEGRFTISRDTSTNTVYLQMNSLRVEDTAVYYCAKGRAAGTFDSWGQGTLVTVSS showed 110 nM (3 of 3 replicates).
The variant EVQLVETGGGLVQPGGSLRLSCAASGFTKNSYGISWVRQAPGKGPEWVSVIYSDWRRTFYGDSVKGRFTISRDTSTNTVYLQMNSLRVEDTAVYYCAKGRAACTFDSWGQGTLVTVSS showed no signal (0 of 3 replicates).
The variant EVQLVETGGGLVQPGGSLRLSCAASGFTDNSYGISWVRQAPGKGPEWVSVIYSDGRRTFYGDSVKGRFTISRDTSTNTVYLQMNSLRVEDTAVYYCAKGRAVGTFDAWGQGTLVTVSS showed no signal (0 of 3 replicates).
The variant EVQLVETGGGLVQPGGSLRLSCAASGFTLNSYGISWVRQAPGKGPEWVSVIYGDGDRTFYGDSVKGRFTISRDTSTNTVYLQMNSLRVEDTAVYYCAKGRAAGTFISWGQGTLVTVSS showed 20 µM (1 of 3 replicates).
The variant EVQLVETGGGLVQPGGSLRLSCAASGFTLNSYGISWVRQAPGKGPEWVSVIYSDGRRTFRGDSVKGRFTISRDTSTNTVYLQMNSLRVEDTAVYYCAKGRAAGTFSSWGQGTLVTVSS showed 3.5 µM (1 of 3 replicates).
The variant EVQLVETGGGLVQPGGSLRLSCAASGFTLNSYGISWVRQAPGKGPEWVSVIYADGRRTFYGVSVFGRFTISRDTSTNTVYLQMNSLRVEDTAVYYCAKGRAAGTFDSWGQGTLVTVSS showed 320 nM (1 of 3 replicates).

For reference, 2 entries of the list once more:

The variant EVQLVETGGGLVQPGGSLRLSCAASGFTPNSYGISWVRQAPGKGPEWVSMIYSDGRRTFYGDSCKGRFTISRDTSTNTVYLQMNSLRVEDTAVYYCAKGRAAGTFDSWGQGTLVTVSS gave 81 µM (1 of 3 replicates).
The variant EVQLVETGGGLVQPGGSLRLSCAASGFTLNSYGISWVRQAPGKGPEWVSVIYPDGRRTFYGDNVEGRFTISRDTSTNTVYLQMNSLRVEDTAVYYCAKGRAAGTFDSWGQGTLVTVSS gave 110 nM (3 of 3 replicates).

In this assay the parent's reference entry averaged 4.4 nM; its copy inside this library read 13 µM (one replicate of three).